pIC50: −log10 of the molar value.
biological target: GSK-3β (Homo sapiens, UniProt P49841); assay: GSK-3β inhibition (radiometric, GS 1 peptide); type: biochemical; conditions: GSK-3 enzyme (Sigma), 15 μM ATP, Tables 3, 3a, 4

Amino acid sequences for entries named in this document (tags omitted).
UniProt P49841, whole entry: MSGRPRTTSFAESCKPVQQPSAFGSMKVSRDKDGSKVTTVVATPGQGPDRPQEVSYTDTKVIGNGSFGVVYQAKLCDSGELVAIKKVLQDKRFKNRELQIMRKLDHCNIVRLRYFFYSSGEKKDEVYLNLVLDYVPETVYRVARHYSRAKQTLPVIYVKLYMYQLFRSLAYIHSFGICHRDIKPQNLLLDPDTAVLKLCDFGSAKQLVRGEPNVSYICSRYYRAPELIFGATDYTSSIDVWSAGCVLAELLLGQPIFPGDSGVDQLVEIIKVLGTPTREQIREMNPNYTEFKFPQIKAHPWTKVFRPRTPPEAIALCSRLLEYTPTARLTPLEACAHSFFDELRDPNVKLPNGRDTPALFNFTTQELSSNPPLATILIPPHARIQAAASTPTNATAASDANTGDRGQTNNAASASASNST

`CCn1sc(=Nc2ccccn2)n(CC)c1=O` was tested. Which pIC50 did it give?
The pIC50 was < 4.00.

With `CCn1sc(=O)n(-c2ccccc2)c1=N` as the compound, how does the pIC50 read?
Its pIC50 is 4.19.

How did the pIC50 turn out when `CCNC(=O)N=c1n(CC)sc(=O)n1-c1ccccc1` was run?
The pIC50 was 4.12.

With `CCn1c(=Nc2ccccn2)sn(C)c1=S` as the compound, how does the pIC50 read?
Its pIC50 is 5.00.

`O=c1sn(-c2ccccc2)c(=O)n1-c1ccccc1` was tested. Which pIC50 did it give?
Its pIC50 is 5.10.

How did the pIC50 turn out when `Cn1sc(=Nc2ccccn2)n(C)c1=O` was run?
Its pIC50 is < 4.00.

`CCn1c(=Nc2ccccn2)sn(C)c1=O` was tested. Which pIC50 did it give?
The pIC50 was < 4.00.

With `CCn1c(=O)[nH]sc1=Nc1ccccn1` as the compound, how does the pIC50 read?
The pIC50 was < 4.00.

With `CCOC(=O)N=c1n(C(=O)OCC)sc(=S)n1-c1ccccc1` as the compound, how does the pIC50 read?
Its pIC50 is < 5.00.

`CCn1sc(=O)n(-c2ccccc2)c1=O` was tested. Which pIC50 did it give?
The pIC50 was 5.22.

test system: N2A cells; assay: Cell cycle blockade; conditions: N2A cell cultures, Table 5

How did the pIC50 turn out when `O=c1sn(Cc2ccccc2)c(=O)n1Cc1ccccc1` was run?
The pIC50 was 5.52 to 5.70.

Source: patent US7666885B2, “Enzyme inhibitors” (Consejo Superior de Investigaciones Cientificas, priority 2000, dated 2010)
